# Values quoted from earlier work as cited in patent publication US20080139664A1, “ANTI-GLYCATION AGENTS FOR PREVENTING AGE-, DIABETES-, AND SMOKING-RELATED COMPLICATIONS” (NATIONAL RESEARCH COUNCIL OF CANADA, priority 2001, published 2008).
# Conditions: rabbit eye, cited from earlier work
# [1] = 6 hours after 50 μL drop of 0.05% dipivefrin
substance,measurement,setting,value
"D,L-Epinephrine","concentration of D,L-epinephrine in choroid & retina",30 min after 50 μL eye drop of 0.05% dipivefrin,2960 ± 1110 nM
same,"concentration of D,L-epinephrine in choroid & retina",1 hour after 50 μL eye drop of 0.05% dipivefrin,3760 ± 370 nM
same,"concentration of D,L-epinephrine in choroid & retina",3 hours after 50 μL eye drop of 0.05% dipivefrin,2190 ± 390 nM
same,concentration of epinephrine in aqueous humor,[1],280 ± 80 nM
same,concentration of epinephrine in ciliary body,[1],3710 ± 670 nM
same,concentration of epinephrine in cornea,[1],2780 ± 390 nM
same,concentration of epinephrine in iris,[1],9050 ± 1680 nM
same,concentration of epinephrine in lens,[1],< 260 nM
same,concentration of epinephrine in sclera,[1],2660 ± 570 nM
same,concentration of epinephrine in vitreous humors,[1],< 26 nM
same,"concentration of D,L-epinephrine in choroid & retina",6 hours after 50 μL eye drop of 0.05% dipivefrin,1910 ± 1110 nM

# Read-outs that look alike come from different tables or passages of the source.
